The record followed here is paper PMC10724237, “Identification of 5-HT2A receptor signaling pathways associated with psychedelic potential” (Nature Communications, 2023).

The chains behind the UniProt entries cited, without tags or fusion partners.
UniProt P28223, whole entry: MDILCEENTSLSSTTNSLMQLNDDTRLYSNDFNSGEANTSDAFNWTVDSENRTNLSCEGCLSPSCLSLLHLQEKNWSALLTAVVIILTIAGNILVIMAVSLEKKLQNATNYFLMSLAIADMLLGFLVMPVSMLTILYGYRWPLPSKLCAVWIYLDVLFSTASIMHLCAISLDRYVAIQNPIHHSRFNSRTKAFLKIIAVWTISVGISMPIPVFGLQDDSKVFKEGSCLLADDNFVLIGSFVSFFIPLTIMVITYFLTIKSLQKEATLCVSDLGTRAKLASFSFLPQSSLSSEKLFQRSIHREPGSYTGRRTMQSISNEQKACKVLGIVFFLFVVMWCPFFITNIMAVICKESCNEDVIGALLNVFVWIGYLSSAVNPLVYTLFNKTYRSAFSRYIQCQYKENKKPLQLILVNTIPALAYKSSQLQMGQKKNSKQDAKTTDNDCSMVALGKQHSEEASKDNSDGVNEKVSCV

The test deals with T1, 5-HT2A receptor (5-HT2AR) (Homo sapiens, UniProt P28223).
T1 construct: gene HTR2A; full-length receptor in HEK293T; co-expressed Galphaq-RLuc8/Gbeta1/Ggamma1-GFP2 for Gq dissociation; C-terminal RLuc8 fusion for beta-arrestin2 recruitment
In kind it is cell-based.

Consider `NCCc1c[nH]c2ccc(O)cc12` [5-HT], for which the EC50 result was “Comparison of 5-HT2A receptor Gq dissociation (red) and β-arrestin2 recruitment (blue) for 5-HT (D)”.
